Results: patent US12162892B2, “CD16a binding agents and uses thereof” (KLEO PHARMACEUTICALS, INC., priority 2018, dated 2024)

What was measured:
Assay in all cases: MATE ELISA, interaction with various receptors (Example 55)
Format in all cases: binding
Details in all cases: three replicate values
[1] = test system: CD32a-R167
Method: (§1) Coat ELISA plates (Costar 3922) using Neutravidin (Thermo 31000) at 5 μg/ml in PBS (100 μl/well) for 1 hour at 37° C. Plates were washed 4 times with PBST (PBS, 0.05% Tween 20-200 μl, 1 minute/wash) then blocked using 200 μl 5% bovine serum albumin (BSA, Heat Shock, Fraction V-American Bio AB01088-00100) in PBST for 2 hours at 25° C. with moderate shaking. BSA was removed and plates were washed. Biotinylated CD16a protein (158F-Acro Biosystems #CDA-H82E8, 158V-Acro Biosystems #CDA-H82E9) at 5 nM in PBSTB (PBST+0.1% BSA) was then added (100 μl/well) and incubated for 1 hour at 25° C. with gentle shaking. Protein was removed and plates were washed. MATE labeled antibodies diluted to 1 μg/ml in PBSTB (100 μl/well) were added and incubated for 1 hour at 25° C. with gentle shaking. Wash plates. HRP labeled Mouse Anti-Human IgG, F(ab′)2 (Jackson Immuno Research 209-035-097) diluted 1:2500 in PBSTB was added (100 μl/well) and incubated for 1 hour at 25° C. with gentle shaking. Wash plates. Substrate (Super Signal ELISA Pico Chemiluminescent Substrate-Thermo 37069) was added (100 μl/well) and plates were incubated for 5 minutes at 25° C. with gentle shaking. Luminescence was then measured on the Biotek Synergy H1 microplate reader.
(§2) Using similar methods as Examples 47 or 53, interactions with a number of receptors were measured. In some embodiments, “stock” is antibody only, and “control” is an antibody that went through the same procedure except using DMSO only as opposed to a compound. When contacted with targeting moieties such as antibodies in the Examples, compounds, e.g., I-95, I-96, etc. can react through their reactive groups
(§3) [drawing 887] with reactive groups of targeting moieties (e.g., —NH2) to form conjugates by forming amide groups (—C(O)NH—). […] In some embodiments, certain compounds selectively bind to CD16a over one or more other receptors.

[2] = test system: CD16a 158V
Method: as §1, §2, §3

[3] = target: CD38 (Homo sapiens, UniProt P28907)
Method: as §1, §2, §3

[4] = target: T1, CD32b (Homo sapiens, UniProt P31994)
T1 sequence (P31994 43-310): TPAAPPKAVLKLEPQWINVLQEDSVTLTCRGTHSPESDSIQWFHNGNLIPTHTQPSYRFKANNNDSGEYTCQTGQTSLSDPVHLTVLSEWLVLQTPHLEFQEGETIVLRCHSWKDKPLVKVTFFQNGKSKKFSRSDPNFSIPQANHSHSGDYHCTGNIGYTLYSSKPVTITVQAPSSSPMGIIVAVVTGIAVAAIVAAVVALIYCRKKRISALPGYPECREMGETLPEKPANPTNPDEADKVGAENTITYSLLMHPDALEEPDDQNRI
Method: as §1, with “Biotinylated CD16a protein (158F-Acro Biosystems #CDA-H82E8, 158V-Acro Biosystems #CDA-H82E9) at 5 nM in PBSTB (PBST+0.1% BSA) was then added (100 μl/well) and incubated for 1 hour at 25° C. with gentle shaking.” left out
In some embodiments, “stock” is antibody only, and “control” is an antibody that went through the same procedure except using DMSO only as opposed to a compound. When contacted with targeting moieties such as antibodies in the Examples, compounds, e.g., I-95, I-96, etc. can react through their reactive groups […]

[5] = Table 12, Cetuximab with 30-, 10-, 3-fold I-95, listed as Control (Cetuximab)

Substance: Cetuximab Control: "'control' is an antibody that went through the same procedure except using DMSO only as opposed to a compound"
- MATE ELISA Results CD32a R157 ([1]; Table 11): 62533 and 60692 and 58018
- MATE ELISA Results CD32a-R167 [1, 5]: 87126 and 68955 and 66536
- MATE ELISA Results CD16a 158V ([2]; Table 11): 503765 and 480337 and 469282
- MATE ELISA Results CD16a-158V [2, 5]: 610541 and 600643 and 584100
- MATE ELISA Results CD38 ([3]; Table 11): 1022 and 422 and 368
- MATE ELISA Results CD38 [3, 5]: 1167 and 522 and 342
- MATE ELISA Results CD32b ([4]; Table 11): 4039 and 3862 and 3812
- MATE ELISA Results CD32b [4, 5]: 2727 and 2683 and 2816

Where “and” joins values, the source holds several entries; their conditions need not be identical. Equal entries are not always repeated.
